These are literature values, as cited in US20110230399A1, “Methods for Treating Obesity Related Disease” (priority 2008, published 2011).

By UniProt entry, the sequences of proteins in these tests, tags left out.
UniProt P25929, whole entry: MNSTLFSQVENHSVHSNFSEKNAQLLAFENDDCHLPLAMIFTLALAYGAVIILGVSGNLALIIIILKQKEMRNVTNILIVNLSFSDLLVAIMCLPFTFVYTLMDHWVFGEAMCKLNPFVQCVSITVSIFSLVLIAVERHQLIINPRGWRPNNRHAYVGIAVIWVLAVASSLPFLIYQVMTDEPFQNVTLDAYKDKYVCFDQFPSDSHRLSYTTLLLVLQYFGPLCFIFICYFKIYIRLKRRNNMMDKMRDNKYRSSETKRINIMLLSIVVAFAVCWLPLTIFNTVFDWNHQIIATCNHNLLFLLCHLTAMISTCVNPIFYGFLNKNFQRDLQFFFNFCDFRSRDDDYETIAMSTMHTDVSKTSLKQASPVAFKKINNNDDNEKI
UniProt P49146, whole entry, species assumed: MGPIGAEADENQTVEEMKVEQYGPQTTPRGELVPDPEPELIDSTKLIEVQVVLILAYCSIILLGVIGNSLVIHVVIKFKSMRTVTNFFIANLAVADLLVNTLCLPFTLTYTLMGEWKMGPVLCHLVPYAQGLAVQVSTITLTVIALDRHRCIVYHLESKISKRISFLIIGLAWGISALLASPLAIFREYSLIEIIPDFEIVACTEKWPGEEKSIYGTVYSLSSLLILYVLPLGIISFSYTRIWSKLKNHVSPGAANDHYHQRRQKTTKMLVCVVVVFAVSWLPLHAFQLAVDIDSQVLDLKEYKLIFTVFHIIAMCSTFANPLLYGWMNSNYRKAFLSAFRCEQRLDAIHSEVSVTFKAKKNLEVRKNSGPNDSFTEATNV

In one data set the target is Y1 receptors (Homo sapiens, UniProt P25929).
A further data set has as its target Y2 receptor (Homo sapiens, UniProt P49146).

Take “NPY13-36: Neuropeptide Y fragment 13-36; full agonist at the Y2 receptor”: the “binding to Y1 receptors” value with Y1 receptors is given as “does not bind”. Also, the “agonist activity at the Y2 receptor” value with Y2 receptor is given as “full agonist”.
